In publication PMC3713097 (Chemical research in toxicology, 2013):

Tests used:
human P450 2A13 = molecular target: T1, human P450 2A13 (Homo sapiens, UniProt Q16696)
T1 sequence (Q16696 31-494 limits assumed): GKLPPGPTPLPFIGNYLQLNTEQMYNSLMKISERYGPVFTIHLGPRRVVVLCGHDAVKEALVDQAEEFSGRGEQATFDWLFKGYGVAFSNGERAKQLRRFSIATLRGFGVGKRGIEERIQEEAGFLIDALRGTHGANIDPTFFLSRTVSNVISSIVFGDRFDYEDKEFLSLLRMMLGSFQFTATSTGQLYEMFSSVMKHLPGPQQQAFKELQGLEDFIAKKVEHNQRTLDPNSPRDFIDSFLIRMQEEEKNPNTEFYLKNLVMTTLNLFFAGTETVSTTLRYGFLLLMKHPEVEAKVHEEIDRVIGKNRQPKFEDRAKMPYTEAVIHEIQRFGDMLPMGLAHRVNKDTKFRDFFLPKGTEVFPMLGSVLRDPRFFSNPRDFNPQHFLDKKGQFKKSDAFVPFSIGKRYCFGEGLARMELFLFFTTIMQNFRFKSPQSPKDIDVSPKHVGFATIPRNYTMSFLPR

P450 1B1 = molecular target: T2, P450 1B1 (Homo sapiens, UniProt Q16678, L432V)
T2 sequence (Q16678 1-543 L432V): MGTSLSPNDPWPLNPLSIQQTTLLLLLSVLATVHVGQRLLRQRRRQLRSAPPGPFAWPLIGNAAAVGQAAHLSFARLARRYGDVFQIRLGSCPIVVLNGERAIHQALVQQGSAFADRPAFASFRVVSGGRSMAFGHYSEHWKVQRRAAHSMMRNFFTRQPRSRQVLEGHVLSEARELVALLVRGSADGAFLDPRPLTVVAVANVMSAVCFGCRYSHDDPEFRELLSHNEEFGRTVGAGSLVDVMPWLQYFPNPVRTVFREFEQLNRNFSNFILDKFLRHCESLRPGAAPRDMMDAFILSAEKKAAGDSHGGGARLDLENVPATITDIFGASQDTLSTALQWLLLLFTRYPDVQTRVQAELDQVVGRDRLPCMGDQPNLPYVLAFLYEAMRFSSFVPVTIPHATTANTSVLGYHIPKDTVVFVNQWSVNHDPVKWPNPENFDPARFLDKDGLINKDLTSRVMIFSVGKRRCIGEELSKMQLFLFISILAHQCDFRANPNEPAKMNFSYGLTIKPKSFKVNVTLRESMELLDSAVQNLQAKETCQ

P450 2A6 = molecular target: T3, P450 2A6 (Homo sapiens, UniProt P11509)
T3 sequence (P11509 1-494): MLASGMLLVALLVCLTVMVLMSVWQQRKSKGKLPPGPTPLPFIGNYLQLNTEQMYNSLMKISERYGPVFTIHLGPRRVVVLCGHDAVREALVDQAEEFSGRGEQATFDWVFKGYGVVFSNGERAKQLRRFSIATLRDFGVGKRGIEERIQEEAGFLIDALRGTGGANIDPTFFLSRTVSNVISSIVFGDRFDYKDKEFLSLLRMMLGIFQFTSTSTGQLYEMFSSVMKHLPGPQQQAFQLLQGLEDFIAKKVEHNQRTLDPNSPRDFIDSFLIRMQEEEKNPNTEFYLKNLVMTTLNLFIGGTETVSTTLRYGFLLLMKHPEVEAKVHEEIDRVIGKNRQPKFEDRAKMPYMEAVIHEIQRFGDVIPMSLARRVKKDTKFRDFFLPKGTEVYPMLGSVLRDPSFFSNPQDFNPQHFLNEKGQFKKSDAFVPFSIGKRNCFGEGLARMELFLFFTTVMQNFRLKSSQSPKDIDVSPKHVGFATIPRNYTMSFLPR

Q: With “2-amino-3,5-dimethylimiidazo[4,5-f]quinoline [MeIQ]” as the substance, how does the “activation of procarcinogens umu gene expression” value (“activation” for short) (human P450 2A13) read?
A: The value was 260 ± 30 units/min/nmol P450.

Q: And the “activation” value (P450 1B1)?
A: Its value is 601 ± 59 units/min/nmol P450.

Q: What about the “activation” value (P450 2A6) of the same substance?
A: The value was 350 ± 44 units/min/nmol P450.
